Test results: patent US20170143844A1, “Composition and Methods of Use of Nano Anti-Radical Therapeutics To Inhibit Cancer” (AntiRadical Therapeutics LLC, priority 2015, published 2017)

Assays:
[1] = system: cyclin D1; assay: Cyclin D1 expression by western blotting in 4T1 cells; assay type: cell-based, mouse; details: treated 4T1 cells, western blotting (FIG. 3)
Method: FIG. 3. Expression of cyclin D1 in MCFRN-HSA treated 4T1 cells. Cultured 4T1 cells were treated with MCFRN-HSA as indicated and then harvested for western blotting.
Reference is now made to FIG. 3. As an extension of our work showing that MCFRN-HSA inhibits cancer cell proliferation we examined a variety of cell cycle regulatory proteins. […] In summary, MCFRN-HSA appears to have direct effects on cancer cell proliferation. This is associated with reduced cellular ROS levels and the downregulation cyclin D1.

[2] = system: brain cancer; assay: Mouse model of brain cancer; assay type: in vivo; details: administered through IP, results not shown
[3] = system: MLM3; assay: Proliferation of HNSCC cell line MLM3 (colony forming assays and direct cell counting); assay type: cell-based; details: results not shown
Method: (§1) We have studied the MCFRN-HSA inhibition of proliferation in head and neck squamous cell carcinoma (HNSCC) cell lines, mEER and MLM3 and have obtained similar results as shown in that of FIG. 1-3 (not shown). MLM3 is of special interest because it is resistant to cisplatin and radiation therapy (CRT) and forms highly metastatic tumors in vivo. The cell lines were analyzed against the effect of CRT treatment, MCFRN-HSA was titrated across the same dose ranges and cell proliferation and survival determined by colony forming assays and direct cell counting as described above. […] Like TNBC, HNSCC has a high incidence rate with nearly 600,000 cases annually worldwide. The incidence of HPV+ HNSCC is increasing and is associated with severe comorbidities. About ˜10% of these cases are resistant to standard therapies, develop metastases, and is an incurable disease. Our results would indicate that MCFRN-HSA is such a potentially new and better treatments for this HNSCC patients.

[4] = system: 4T1 mammary tumors; assay type: in vivo
[5] = system: 4T1 tumors; assay: Blood flow in 4T1 tumors by microbubble ultrasound; assay type: in vivo, Balb/c mice
Method: FIG. 4. Measurement of blood flow in 4T1 tumors in mice. Tumor bearing animals were injected with microbubbles and then with MCFRN-HSA and time of tumor perfusion was measured by ultrasound. Lower time is indicative of faster blood flow through tumor.
Reference is now made to FIG. 4: Measurement of blood flow in 4T1 tumors in mice. Tumor bearing animals were injected with microbubbles and then with HAS or MCFRN-HSA and time of tumor perfusion was measured by ultrasound. Lower time is indicative of faster blood flow through tumor.
Specifically, we have tested the effects of MCFRN-HSA on blood flow, Balb/c mice were injected with 4T1 breast cancer cells and tumors were allowed to develop for 8 days. Then tumor diffusion time was analyzed by ultrasound. For this, microbubbles were injected through the tail vein, and a baseline reading of tumor perfusion was obtained. This was followed by MCFRN-HSA or vehicle injection and a second reading of tumor perfusion time. Tumor perfusion was calculated by taking the 30 minute perfusion time minus the baseline time. A shorter time indicates greater perfusion of blood through the tumor.

[6] = system: 4T1 breast cancer cells; assay: Colony forming assay in 4T1 cultures; assay type: cell-based, mouse
Method: FIG. 1. Colony forming assays in MCFRN-HSA treated 4T1 cultures. Cells were plated at low density and then treated with the indicated concentration of MCFRN-HSA as a control. Colonies were stained and counted (A) or measured for size (B).
In this study, a TNBC modeling 4T1 breast cancer cells were plated at low density and incubated for 1 week to allow them to form colonies. The cells were treated with a range of MCFRN-HSA concentrations (FIG. 1) and control cells were left untreated or treated with the same concentrations of human serum albumin (HSA).

[7] = system: mEER; assay: Proliferation of HNSCC cell line mEER (colony forming assays and direct cell counting); assay type: cell-based; details: results not shown
Method: as §1

[8] = system: hemorrhagic stroke; assay: Intrathecal injection in rat model of hemorrhagic stroke; assay type: in vivo; details: IT injection in the cerebral spinal fluid
[9] = system: 4T1 cells; assay: Cellular ROS levels by DCF staining and flow cytometry; assay type: cell-based, mouse; details: different concentrations, DCF mean fluorescence intensity (FIG. 2)
Method: FIG. 2. Effects of MCFRN-HSA on cellular ROS levels. 4T1 cells were treated with MCFRN-HSA as indicated, stained with DCF and analyzed by flow cytometry. Mean fluorescence intensity is shown. Lower fluorescence indicates lower ROS levels.
Reference is now made to FIG. 2. Since the known activity of MCFRN-HSA is the ability to act as a superoxide dismutase mimetic and catalytic agent for ROS removal, we examined its effects on cancer cell ROS levels. Cells were treated with different concentrations of MCFRN-HSA and then cellular ROS levels were estimated by staining with 2′,7′-dichlorodihydro-fluorescein diacetate (DCF) followed by flow cytometry (FIG. 2).

In the case of “MCFRN-HSA: Multiple Catalytic Free Radical Nitroxides carried on Human Serum Albumin; HSA covalently labelled with BrAcTPO, 40-60 nitroxides per molecule”, the “cyclin D1 levels” value [1] is reported as “decreased”, the “efficacy in treatment of brain cancer” value [2] is reported as “efficacy in the treatment of mouse model of brain cancer” and the “anti-proliferation efficacy compared with CRT” value ([3]; MLM3 (resistant to CRT), versus cisplatin and radiation therapy) is reported as “by far more superior than CRT”. The inhibition of proliferation ([3]; MLM3 HNSCC cell line) was “efficacious in inhibiting the proliferation”, the lung metastatic nodules ([4]; flank 4T1 tumors, 1 mg/Kg 3 times per week from day 4, without Doxorubicin (FIG. 5a)) was “robust decrease” and the “growth of primary tumors” value ([4]; flank 4T1 tumors, with or without Doxorubicin) was “no significant difference”. For the same substance, the lung metastases ([4]; in the presence of Doxorubicin (FIG. 5b)) was “significant reduction”, the “blood flow to tumors” value ([5]; 4T1 tumors in Balb/c mice) was “significantly increases blood flow” and the tumor perfusion time ([5]; 30 minute perfusion time minus baseline, tumors 8 days, versus vehicle (FIG. 4)) was “shorter than in vehicle treated animals”. The “concentrations at which effects on cell proliferation are observed” value ([6]; 4T1 cells) was “low micromolar concentrations”, the “number of colonies formed” value ([6]; 4T1 cells plated at low density, 1 week, compared to HSA treated cells (FIG. 1a)) was “reduced the number of colonies formed” and the colony size ([6]; 4T1 cells plated at low density, 1 week, compared to HSA treated cells (FIG. 1b)) was “reduced colony size”. For the same substance, the inhibition of proliferation ([7]; mEER HNSCC cell line) was “efficacious in inhibiting the proliferation”, the “anti-proliferation efficacy compared with CRT” value ([7]; mEER, versus cisplatin and radiation therapy (CRT)) was “by far more superior than CRT” and the “safety and efficacy of intrathecal injection” value [8] was “safe and effective”. For the same substance, the “cellular ROS levels” value [9] was “dose dependent decrease”.
